The entries are a selection whose mix differs from that of the whole data set. The source made the active and inactive calls.

Sequences of proteins named here, by UniProt entry; tags and fusion partners are left off. A change or cut given only in a name is not applied to a line headed by its entry.
UniProt Q04721: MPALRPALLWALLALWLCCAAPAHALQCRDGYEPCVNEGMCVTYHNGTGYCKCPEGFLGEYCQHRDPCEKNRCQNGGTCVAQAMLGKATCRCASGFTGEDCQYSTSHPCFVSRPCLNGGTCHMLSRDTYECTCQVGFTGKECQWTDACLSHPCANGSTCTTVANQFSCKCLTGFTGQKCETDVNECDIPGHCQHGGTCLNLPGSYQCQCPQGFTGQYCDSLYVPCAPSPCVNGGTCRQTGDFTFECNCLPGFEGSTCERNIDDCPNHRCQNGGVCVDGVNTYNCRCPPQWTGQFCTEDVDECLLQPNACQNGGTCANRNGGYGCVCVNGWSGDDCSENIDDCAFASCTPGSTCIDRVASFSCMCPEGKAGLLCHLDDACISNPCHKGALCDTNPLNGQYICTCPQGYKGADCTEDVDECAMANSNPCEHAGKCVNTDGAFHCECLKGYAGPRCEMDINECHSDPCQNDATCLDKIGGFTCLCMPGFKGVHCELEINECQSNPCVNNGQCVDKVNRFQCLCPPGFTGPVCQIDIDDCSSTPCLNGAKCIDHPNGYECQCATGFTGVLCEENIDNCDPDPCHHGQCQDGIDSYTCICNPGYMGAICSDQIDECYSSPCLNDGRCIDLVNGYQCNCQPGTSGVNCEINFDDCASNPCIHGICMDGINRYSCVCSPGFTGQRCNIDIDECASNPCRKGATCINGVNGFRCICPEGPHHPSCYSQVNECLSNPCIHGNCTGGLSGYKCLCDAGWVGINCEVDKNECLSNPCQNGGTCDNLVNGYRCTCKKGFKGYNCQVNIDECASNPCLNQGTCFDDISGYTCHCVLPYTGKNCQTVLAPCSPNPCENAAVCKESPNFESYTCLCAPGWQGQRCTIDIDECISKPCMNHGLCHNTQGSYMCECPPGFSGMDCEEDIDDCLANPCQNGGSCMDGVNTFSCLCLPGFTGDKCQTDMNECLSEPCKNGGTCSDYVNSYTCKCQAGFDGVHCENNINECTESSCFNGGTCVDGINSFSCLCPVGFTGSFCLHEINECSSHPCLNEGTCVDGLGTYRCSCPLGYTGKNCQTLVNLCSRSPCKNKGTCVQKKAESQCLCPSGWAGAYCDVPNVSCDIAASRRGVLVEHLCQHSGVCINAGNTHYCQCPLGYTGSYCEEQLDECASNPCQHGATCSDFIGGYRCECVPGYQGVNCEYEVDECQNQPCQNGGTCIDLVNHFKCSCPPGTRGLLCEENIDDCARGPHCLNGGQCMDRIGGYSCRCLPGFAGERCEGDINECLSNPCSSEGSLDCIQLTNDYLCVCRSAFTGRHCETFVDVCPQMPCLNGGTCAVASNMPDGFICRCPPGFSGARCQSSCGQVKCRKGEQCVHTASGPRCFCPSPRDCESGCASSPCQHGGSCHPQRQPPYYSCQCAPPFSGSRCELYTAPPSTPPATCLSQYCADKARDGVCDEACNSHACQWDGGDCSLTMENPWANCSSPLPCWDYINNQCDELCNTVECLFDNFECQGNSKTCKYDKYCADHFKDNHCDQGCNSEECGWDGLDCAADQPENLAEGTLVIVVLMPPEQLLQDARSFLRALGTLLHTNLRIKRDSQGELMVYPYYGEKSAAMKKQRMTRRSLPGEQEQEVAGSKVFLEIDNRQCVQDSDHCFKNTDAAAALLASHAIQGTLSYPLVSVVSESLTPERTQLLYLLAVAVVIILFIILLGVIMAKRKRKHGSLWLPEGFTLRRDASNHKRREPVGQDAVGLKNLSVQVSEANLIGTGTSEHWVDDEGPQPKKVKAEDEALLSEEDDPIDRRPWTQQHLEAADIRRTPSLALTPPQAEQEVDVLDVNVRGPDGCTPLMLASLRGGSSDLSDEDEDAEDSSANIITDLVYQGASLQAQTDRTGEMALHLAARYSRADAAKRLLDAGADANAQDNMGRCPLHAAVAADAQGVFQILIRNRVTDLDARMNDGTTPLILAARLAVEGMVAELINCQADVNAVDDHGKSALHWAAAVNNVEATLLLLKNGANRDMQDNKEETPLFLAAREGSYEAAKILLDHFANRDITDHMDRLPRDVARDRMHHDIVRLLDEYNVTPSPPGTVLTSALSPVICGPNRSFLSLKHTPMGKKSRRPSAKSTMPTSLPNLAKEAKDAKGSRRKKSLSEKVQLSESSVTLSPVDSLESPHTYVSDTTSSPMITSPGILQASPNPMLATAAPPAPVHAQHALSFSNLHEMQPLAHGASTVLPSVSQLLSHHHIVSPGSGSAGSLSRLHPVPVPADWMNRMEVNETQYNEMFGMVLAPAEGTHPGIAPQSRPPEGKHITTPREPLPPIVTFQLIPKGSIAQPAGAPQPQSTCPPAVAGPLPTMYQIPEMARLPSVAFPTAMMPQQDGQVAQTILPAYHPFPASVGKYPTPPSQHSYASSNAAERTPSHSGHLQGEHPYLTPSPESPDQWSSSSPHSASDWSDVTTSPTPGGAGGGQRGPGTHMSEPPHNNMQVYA
UniProt Q02297: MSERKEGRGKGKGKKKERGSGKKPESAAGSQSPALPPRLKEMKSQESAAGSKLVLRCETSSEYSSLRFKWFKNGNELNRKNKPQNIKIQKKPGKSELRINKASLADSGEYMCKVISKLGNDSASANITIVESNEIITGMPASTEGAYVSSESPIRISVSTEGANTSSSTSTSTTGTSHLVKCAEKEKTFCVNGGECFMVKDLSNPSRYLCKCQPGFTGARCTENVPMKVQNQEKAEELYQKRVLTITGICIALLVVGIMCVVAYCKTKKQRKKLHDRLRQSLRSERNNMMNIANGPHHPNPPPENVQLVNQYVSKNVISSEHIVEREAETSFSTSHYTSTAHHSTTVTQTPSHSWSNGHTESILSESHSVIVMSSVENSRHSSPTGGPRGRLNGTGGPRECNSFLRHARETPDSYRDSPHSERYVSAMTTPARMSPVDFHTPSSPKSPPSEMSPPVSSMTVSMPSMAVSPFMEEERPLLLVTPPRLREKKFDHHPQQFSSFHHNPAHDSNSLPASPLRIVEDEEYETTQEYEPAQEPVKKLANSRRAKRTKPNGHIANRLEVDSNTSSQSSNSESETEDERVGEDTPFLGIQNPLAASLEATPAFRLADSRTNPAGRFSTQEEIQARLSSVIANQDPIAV

Drawing on PubChem BioAssay, this text covers composite z-score and z-score for 15 compounds.

Assay [1] is described as follows: binders of probe aFSTL3 on microarray, primary screen, stem cell growth factor project, biochemical, small-molecule microarray, fluorescence 635/667 (AID 1064).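 Also: measures binding of the biotinylated anti-FSTL3 antibody to printed compounds.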 To be noted: higher = more signal.
Assay [2] is described as follows: binders from COS7 lysate, DM2A8 probe, primary screen, torsin A project, cell lysate, small-molecule microarray, fluorescence 635/667 (AID 1065). As to conditions: higher = more signal, COS7 lysate expressing mutant human TOR1A.
The nature of assay [3]: binders of probe aFGF2 on microarray, primary screen, stem cell growth factor project, biochemical, small-molecule microarray, fluorescence 635/667 (AID 1067).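 Also: measures binding of biotinylated aFGF2 protein to printed compounds on slides; z-score merges feature fluorescence and signal-to-noise across triplicate slides.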 As to conditions: higher = more signal.
Assay [4] can be described thus: binders of probe aFGF10 on microarray, primary screen, stem cell growth factor project, biochemical, small-molecule microarray, fluorescence 635/667 (AID 1071).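 Also: score merges 667 nm spot intensity and signal to noise from triplicate slides.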 To be noted: higher = more signal.
In assay [5] the target is Neurogenic locus notch homolog protein 2 (Homo sapiens) (UniProt Q04721). As to the kind of experiment: Notch2 binders on small-molecule microarrays, primary screen, biochemical, small-molecule microarray, 635 nm fluorescence, stem cell growth factors (AID 1073). To be noted: Notch2 binding, higher = more signal.
Assay [6] has as its target Pro-neuregulin-1, membrane-bound isoform (Homo sapiens) (UniProt Q02297). As to the kind of experiment: NRG1 binders on small-molecule microarrays, primary screen, psychiatric disease protein project, biochemical, small-molecule microarray, fluorescence 635/667 (AID 1075).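 Also: score combines 667 nm spot fluorescence with signal to noise.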 To be noted: NRG1 binding, 635 nm fluorescence, higher = more signal.
Assay [7] concerns Neuregulin-1 EGF-like domain. As to the kind of experiment: binders of neuregulin-1 EGF-like domain, primary screen, biochemical, small-molecule microarray, 635 nm fluorescence (AID 1081).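 Also: binding of the protein to compounds printed on small-molecule microarray slides.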 As to conditions: small-molecule microarray binding, higher = more signal.
Assay [8] can be described thus: FRG1 promoter luciferase signal modulators, primary screen, FRG1 inhibition for FSHD, cell-based, C2C12 myotubes, firefly/Renilla luciferase, luminescence (AID 1084). As to conditions: higher = more signal, called active from +8 up or from −8 down.
Assay [9] is described as follows: binders of probe aFST on microarray, primary screen, stem cell growth factor project, biochemical, small-molecule microarray, fluorescence 635/667 (AID 1086).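 Also: score merges 667 nm fluorescence with signal-to-noise of each printed compound spot.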 As to conditions: higher = more signal.
Assay [10] is described as follows: binders of probe aHhip on microarray, primary screen, stem cell growth factor project, biochemical, small-molecule microarray, fluorescence 635/667 (AID 1087).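 Also: score merges spot fluorescence at 667nm with spot signal to noise ratio.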 To be noted: higher = more signal.

Take `COP(=O)(/N=C1/CC(c2ccc(CO)cc2)=CC(C2CC2)N1C)OC` (stereo not given): the composite z-score in assay [1] was -0.435; in assay [2], 0.281; in [3], -0.0525; in assay [4] it was 0.275; in [5], -0.223; in [6] it was 1.94. The composite z-score came out at 0.186 in assay [7], 0.0588 in assay [9] and 0.481 in [10]. The z-score in [8] was inactive: 0.116.

With `COP(=O)(/N=C1/CC(CCCO)=CC(c2ccc(CN3CCCC3)cc2)N1Cc1cc2c(cc1Br)OCO2)OC` (stereo not given), the composite z-score turned out to be 0.822 in [1]; 0.451 in [2]; 0.0192 in assay [3]; 0.659 in assay [4]; 0.0945 in assay [5]; 0.571 in [6]. In addition, the composite z-score in assay [7] is -0.0554; in assay [9], 0.714; in assay [10] it was -0.242. Besides, the z-score in assay [8] is inactive: -1.48.

In the case of `O=P(/N=C1/CC(CCCO)=CC(c2ccc(CN3CCCC3)cc2)N1Cc1sc2ccccc2c1Cl)(Oc1ccccc1)Oc1ccccc1` (stereo not given), the composite z-score in assay [1] was 0.125; in assay [2], 0.0246; in assay [3], -0.0238; in [4], 0.0491; in assay [5], -0.209; in assay [6], 2.15. Besides, the composite z-score in assay [7] is 0.83; in assay [9], 0.821; in [10] it was 0.0373. Moreover, in [8], the z-score is inactive: 0.349.

In the case of `CN1/C(=N\P(=O)(Oc2ccccc2)Oc2ccccc2)CC(CCCO)=CC1c1ccc(CN2CCCC2)cc1` (stereo not given), the composite z-score in assay [1] is -0.15; in assay [2], 0.314; in [3], 0.0243; in [4] it was 0.977; in assay [5], 1.23; in assay [6], 2.11. Also, the values for the composite z-score in assay [7], in assay [9] and in assay [10] were 0.702, 0.193 and 0.245, respectively. For the same compound, in assay [8], the z-score is inactive: -0.55.

For `COP(=O)(/N=C1/CC(CCCO)=CC(C)N1Cc1cccc(OC(F)(F)F)c1)OC` (stereo not given), the composite z-score in [1] is -0.144; in [2], 0.886; in assay [3], -0.0416; in [4] it was 0.356; in assay [5] it was 0.215; in assay [6] it was 1.57. In addition, the composite z-score in [7] amounted to 0.337; in assay [9], 0.686; in [10], 0.245. Further, the z-score in assay [8] is inactive: -1.63.

`CN1/C(=N\P(=O)(Oc2ccccc2)Oc2ccccc2)CC(CCCO)=CC1C1CC1` (stereo not given): the composite z-score in assay [1] was 0.419; in [2], 1.87; in [3], -0.0468; in [4] it was 0.446; in assay [5] it was 1.21; in [6], 2.33. Moreover, the composite z-score was determined as 0.688 in assay [7], 0.36 in [9] and 0.184 in [10]. Also, the z-score in assay [8] is inactive: -1.46.

For `O=P(/N=C1/CC(CCCO)=CC(C2CC2)N1Cc1cccc(OC(F)(F)F)c1)(Oc1ccccc1)Oc1ccccc1` (stereo not given), the composite z-score in assay [1] was -0.17; in assay [2], -0.227; in assay [3] it was -0.116; in assay [4], -0.16; in assay [5] it was -0.224; in assay [6], 1.85. Besides, the composite z-score was 0.966 in [7], 0.123 in [9] and -0.193 in assay [10]. In addition, in [8], the z-score was inactive: 0.728.

Consider `COP(=O)(/N=C1/CC(CCCO)=CC(C2CC2)N1Cc1cc2c(cc1Br)OCO2)OC` (stereo not given), for which the composite z-score is 0.247 in assay [1]; 0.851 in assay [2]; 0.0338 in assay [3]; 0.327 in assay [4]; 0.17 in assay [5]; 1.74 in assay [6]. Also, the values for the composite z-score in [7], in assay [9] and in [10] were 0.523, 0.123 and -0.161, respectively. Further, in assay [8], the z-score is inactive: -1.31.

Take `COP(=O)(/N=C1/CC(CCCO)=CC(C2CC2)N1C)OC` (stereo not given): the composite z-score in assay [1] is -0.489; in assay [2] it was 0.418; in assay [3], -0.0963; in [4], 0.0096; in assay [5] it was 0.216; in [6] it was 0.109. The composite z-score is 0.0686 in assay [7], 0.155 in [9] and -0.476 in assay [10]. In assay [8], the z-score is inactive: -1.32.

Consider `COP(=O)(/N=C1/CC(c2ccc(CO)cc2)=CC(C2CC2)N1Cc1cc2c(cc1Br)OCO2)OC` (stereo not given), for which the composite z-score in assay [1] is -0.0398; in [2] it was 0.0771; in assay [3] it was -0.0363; in [4] it was 0.924; in assay [5] it was 0.662; in assay [6], 1.27. Also, the results for the composite z-score in assay [7], in assay [9] and in assay [10] were -0.202, 0.86 and 0.273, respectively. Besides, the z-score in [8] was inactive: -2.81.

Turning to `O=P(/N=C1/CC(c2ccc(CO)cc2)=CC(c2cccs2)N1Cc1cccc(OC(F)(F)F)c1)(Oc1ccccc1)Oc1ccccc1` (stereo not given), the composite z-score in assay [1] is 0.0205; in assay [2] it was 0.25; in [3] it was -0.0945; in [4], 0.356; in [5] it was 1.4; in assay [6] it was 2.02. The composite z-score in assay [7] was 1.08; in assay [9], 0.836; in [10] it was -0.179. Further, the z-score in [8] was inactive: -4.41.

In the case of `COP(=O)(/N=C1/CC(c2ccc(CO)cc2)=CC(C2CC2)N1Cc1sc2ccccc2c1Cl)OC` (stereo not given), the composite z-score in assay [1] came to 0.84; in assay [2], 1.71; in assay [3] it was 0.085; in assay [4], 1.18; in [5], 1.36; in assay [6], 1.82. In addition, the figures for the composite z-score in assay [7], in [9] and in assay [10] were 0.698, 1.34 and -0.0546, respectively. The z-score in assay [8] is inactive: -2.75.

Consider `O=P(/N=C1/CC(CCCO)=CC(c2cccs2)N1Cc1cccc(OC(F)(F)F)c1)(Oc1ccccc1)Oc1ccccc1` (stereo not given), for which the composite z-score was 0.352 in [1]; 0.882 in [2]; 0.0198 in [3]; 0.307 in assay [4]; 1.15 in assay [5]; 1.57 in [6]. Moreover, the figures for the composite z-score in [7], in [9] and in [10] were 0.983, 0.578 and -0.0645, respectively. The z-score in assay [8] was inactive: -0.793.

Regarding `O=P(/N=C1/CC(CCCO)=CC(c2ccc(CN3CCCC3)cc2)N1Cc1cc2c(cc1Br)OCO2)(Oc1ccccc1)Oc1ccccc1` (stereo not given), the composite z-score in [1] was -0.377; in assay [2], -0.0922; in assay [3] it was -0.163; in [4] it was 0.3; in assay [5], 0.116; in [6], 2.33. The composite z-score is 0.35 in assay [7], 0.133 in assay [9] and -0.0296 in [10]. In addition, the z-score in assay [8] is inactive: -0.787.

As to `CN1/C(=N\P(=O)(Oc2ccccc2)Oc2ccccc2)CC(CCCO)=CC1c1cccs1` (stereo not given), the composite z-score in [1] is 0.899; in assay [2], 0.386; in assay [3], 0.0732; in assay [4] it was 0.0631; in [5], -0.0682; in assay [6], 1.06. Also, the composite z-score was 0.793 in assay [7], 0.333 in [9] and 0.0587 in assay [10]. For the same compound, in assay [8], the z-score is inactive: -0.0662.
